Values quoted from earlier work as cited in publication PMC6311893, “Computational prediction of plasma protein binding of cyclic peptides from small molecule experimental data using sparse modeling techniques” (BMC Bioinformatics, 2018).

Tested on: plasma protein
Conditions: cited from earlier work

| Substance | PPB (fb) (plasma) | PPB (fb) |
| --- | --- | --- |
| gemfibrozil | 0.97 | – |
| Buprenorphine | 0.96 | – |
| Warfarin | 0.99 | – |
| ascorbic acid | 0.15 | – |
| medroxyprogesterone | – | 0.9 |

Read-outs that look alike come from different tables or passages of the source.
